Results on 1 compound are retold here after article PMC5037430 (Scientific Reports, 2016).

Usually IC50 stands for the concentration at which inhibition is half-maximal. Lower therefore signals greater potency.

The target in this test is T1, glycolate oxidase (GO); hydroxyacid oxidase 1 (HAO1) (Homo sapiens, UniProt Q9UJM8).
T1 sequence (Q9UJM8 1-370): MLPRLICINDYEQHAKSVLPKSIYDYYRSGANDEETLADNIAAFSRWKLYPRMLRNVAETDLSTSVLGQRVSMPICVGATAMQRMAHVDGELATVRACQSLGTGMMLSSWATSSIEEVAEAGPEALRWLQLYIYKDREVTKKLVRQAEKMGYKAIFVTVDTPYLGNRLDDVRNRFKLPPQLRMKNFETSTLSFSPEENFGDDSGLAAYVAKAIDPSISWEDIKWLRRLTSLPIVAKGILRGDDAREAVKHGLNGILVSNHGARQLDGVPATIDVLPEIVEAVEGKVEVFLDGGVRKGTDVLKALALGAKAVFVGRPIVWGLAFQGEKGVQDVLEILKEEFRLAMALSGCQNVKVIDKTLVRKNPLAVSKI

On to `[O]=[Cr](=[O])([OH])[O][Cr](=[O])(=[O])[OH]` [Potassium dichromate], for which the midpoint of inhibition, the IC50, lay at 0.0966 µM.
